Tests used:
BRD2 BD1 = BRD2 BD1 (Homo sapiens, UniProt P25440); settings: ITC, 30 °C
Experimental: (§1) Figure 1 Design, synthesis, and biophysical and biological evaluation of BET bromodomain PROTACs.
(§2) To assess whether PROTAC molecules retained their binding to the target proteins VHL and BET bromodomains in a similar fashion as the parental ligands, isothermal titration calorimetry (ITC) experiments were performed (Figure 1; all ITC titrations are shown in the Supporting Information).
(§3) 50 μg/mL of kanamycin. Cell growth was allowed at 37 °C and 200 rpm to an optical density of about 2.5 (OD600), at which point temperature was decreased to 18°C. Once the cultures equilibrated at 18 °C, protein expression was induced overnight at 18 °C with 0.4 mM isopropyl-β-thiogalactopyranoside (IPTG). The bacteria was harvested the next day by centrifugation (8000 rpm for 10 minutes at 6 °C, JLA 8.1000 rotor on a Beckman Coulter Avanti J-20 XP centrifuge) and frozen at -20 °C as pellets for storage. Pellets of cells expressing His6-tagged proteins were resuspended in lysis buffer (50 mM HEPES pH 7.5 at 25 °C, 150 mM NaCl, 40 mM Imidazole and 2 mM β-mercaptoethanol). One tablet of Complete Protease Inhibitor Cocktail (Roche) was added to the resuspension and cells were lysed using a French Press at 4 °C.
(§4) Following a 20 min incubation period at room temperature with 10 μg/mL DNaseI and 10 mM MgCl2, the cell debris was removed by centrifugation, 20,000 x g at 4 °C. The lysate was purified via immobilized metal ion affinity chromatography on a His Trap HP 5mL Ni sepharose column (GE Healthcare Life Sciences) on an ÄKTApure system (GE Healthcare). His6-tagged protein was eluted using a linear gradient to 250 mM imidazole in the same buffer. After Ni purification, the pooled elution fractions were concentrated to a volume of 4 mL and further purified by size exclusion chromatography on a Superdex 75 16/60 Hiload gel filtration column (GE Healthcare) on an ÄKTApure system using the following buffer: 20 mM HEPES pH 7.5, 150 mM NaCl.
(§5) Samples were monitored by SDS-polyacrylamide gel electrophoresis to verify purity. Pure protein was then flash frozen with liquid nitrogen and stored at -80 °C. The mass and purity of the proteins were subsequently verified by mass spectrometry.
(§6) Isothermal Titration Calorimetry (ITC):
(§7) ITC experiments were carried out at an ITC 200 instrument from MicroCalTM with a […]
(§8) Experiments were conducted as PROTAC compound into protein titrations, except in the case of MZ3 where protein was titrated into PROTAC. BET protein experiments were conducted in a buffer containing 20 mM HEPES with 100 mM NaCl at pH 7.5 and a temperature of 30 °C. VBC protein experiments were carried out in a buffer containing 20 mM Bis-Tris, 150 mM NaCl and 2 mM Dithiothreitol (DTT) at pH 7 and a temperature of 25 °C.

BRD2 BD2 = BRD2 BD2 (Homo sapiens, UniProt P25440); settings: ITC, 30 °C
Experimental: as §1, §2, §3, §4, §5, §6, §7, §8

BRD4 BD2 = BRD4 BD2 (Homo sapiens, UniProt O60885); settings: ITC, 30 °C
Experimental: as §1, §2, §3, §4, §5, §6, §7, §8

BRD3 BD1 = BRD3 BD1 (Homo sapiens, UniProt Q15059); settings: ITC, 30 °C
Experimental: as §1, §2, §3, §4, §5, §6, §7, §8

BRD3 BD2 = BRD3 BD2 (Homo sapiens, UniProt Q15059); settings: ITC, 30 °C
Experimental: as §1, §2, §3, §4, §5, §6, §7, §8

BRD4 BD1 = BRD4 BD1 (Homo sapiens, UniProt O60885); settings: ITC, 30 °C
Experimental: as §1, §2, §3, §4, §5, §6, §7, §8

BRD4 = BRD4 (Homo sapiens, UniProt O60885); settings: HeLa cells
Experimental: 100U/ml of penicillin/streptomycin. […]
harvested after 48 hours for gene expression study.
Single time point treatment […]
concentrated compound solution in media. The final DMSO concentration was 0.01 % v/v. […]
concentrated compound solution in media. Treatment was conducted at given time points prior […]
Protein recovery experiment […]
treatment. Cells were harvested at given time points. […]
washed twice with ice cold PBS.
After removal of the insoluble
PierceTM BCA Protein Assay Kit. […]
ab109027, EPR6089) 1:50000.
Between incubation with the different antibodies
RNA extraction and real-time PCR
After treatment described

`Cc1ncsc1-c1ccc(CNC(=O)[C@@H]2C[C@@H](O)CN2C(=O)[C@@H](NC(=O)COCCOCCOCCNC(=O)C[C@@H]2N=C(c3ccc(Cl)cc3)c3c(sc(C)c3C)-n3c(C)nnc32)C(C)(C)C)cc1` [MZ1] showed a ΔS (BRD2 BD1) of -4.29 ± 0.38 cal/mol∙K, a ΔH (BRD2 BD1; protein 15 μM, ligand 150 μM) of -41.8 ± 0.42 kJ/mol and a ΔG (BRD2 BD2) of -38.6 ± 0.21 kJ/mol. For the same molecule, the ΔS (BRD2 BD2) was 10.3 ± 0.2 cal/mol∙K, the ΔH (BRD2 BD2; protein 15 μM, ligand 150 μM) was -25.4 ± 0.17 kJ/mol and the ΔG (BRD4 BD2) was -40.2 ± 0.17 kJ/mol. For the same molecule, the ΔS (BRD4 BD2) was 9.04 ± 0.16 cal/mol∙K, the ΔH (BRD4 BD2; protein 15 μM, ligand 150 μM) was -28.7 ± 0.13 kJ/mol and the ΔG (BRD3 BD1) was -40.3 ± 0.084 kJ/mol. It also gave a ΔS (BRD3 BD1) of -4.40 ± 0.20 cal/mol∙K, a ΔH (BRD3 BD1; protein 15 μM, ligand 150 μM) of -41.8 ± 0.25 kJ/mol and a ΔG (BRD3 BD2) of -40.3 ± 0.25 kJ/mol. For the same molecule, the ΔH (BRD3 BD2; protein 15 μM, ligand 150 μM) was -34.8 ± 0.21 kJ/mol, the ΔG (BRD4 BD1) was -37.3 ± 0.084 kJ/mol and the ΔS (BRD4 BD1) was 1.04 ± 0.13 cal/mol∙K. For the same molecule, the ΔH (BRD4 BD1; protein 15 μM, ligand 150 μM) was -35.9 ± 0.13 kJ/mol, the “time to detectable recovery of intracellular BRD4 after washout” value (BRD4; 1 μM for 4 h, then compound removed from media, monitored 48 h) was 20 h and the “BRD4 protein level without wash step” value (BRD4; 1 μM single treatment, no exchange of media, after 48 h) was “no protein could be detected”.

Reference: paper PMC4548256, “Selective Small Molecule Induced Degradation of the BET Bromodomain Protein BRD4” (ACS Chemical Biology, 2015)
